The chains behind the UniProt entries cited, without tags or fusion partners. Where a name states a change or a piece, a line headed by the entry shows the natural chain unless it says otherwise.
UniProt P78348: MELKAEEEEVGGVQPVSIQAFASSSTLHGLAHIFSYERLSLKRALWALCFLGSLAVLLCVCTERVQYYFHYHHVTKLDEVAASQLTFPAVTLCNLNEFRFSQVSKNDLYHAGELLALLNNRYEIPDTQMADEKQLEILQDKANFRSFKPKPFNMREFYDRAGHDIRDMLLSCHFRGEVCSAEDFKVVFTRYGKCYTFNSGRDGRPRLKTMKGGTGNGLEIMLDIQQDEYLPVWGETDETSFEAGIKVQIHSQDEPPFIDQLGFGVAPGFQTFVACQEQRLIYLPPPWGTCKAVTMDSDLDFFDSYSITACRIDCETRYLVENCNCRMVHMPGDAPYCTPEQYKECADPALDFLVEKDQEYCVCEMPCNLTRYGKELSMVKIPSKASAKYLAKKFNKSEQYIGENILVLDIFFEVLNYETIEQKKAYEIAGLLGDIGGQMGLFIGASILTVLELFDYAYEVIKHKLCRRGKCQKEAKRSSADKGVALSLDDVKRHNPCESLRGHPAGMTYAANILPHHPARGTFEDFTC

In patent publication US20090023773A1, “COMPOSITIONS AND METHODS FOR MODULATING GATED ION CHANNELS” (PainCeptor Pharma Corporation, priority 2007, published 2009):

Molecular target: recombinant homomeric hASIC1a channels (Homo sapiens, UniProt P78348)
Assay: Two-electrode voltage clamp in Xenopus laevis oocytes expressing gated ion channels (Example 4)
Format: cell-based
Conditions: Table 2; generated using oocytes as in Example 4

c1ccc(CN2CCC(Oc3c4c(nc5ccccc35)CCCC4)CC2)cc1
IC50: > 30 µM
